Experimental data published in ChEMBL document CHEMBL1158584, “Mono-, di-, and triaryl substituted tetrahydropyrans as cyclooxygenase-2 and tumor growth inhibitors. Synthesis and biological evaluation” (J Med Chem, 2010).

Key:
NCI-H322M [1] = test: cells; conditions: Homo sapiens, 48 h; for CC50: read-out: LC50
NCI-H322M [2] = conditions: Homo sapiens, 48 h

N#CSC[C@@H]1C[C@](O)(c2ccccc2)[C@@H](c2ccccc2)[C@H](c2ccc(Cl)cc2)O1 (relative stereo)
GI50 (NCI-H322M [1]): 2.23 µM | CC50 (NCI-H322M [1]): 58.8 µM | TGI (NCI-H322M [2]): 7.76 µM

CCSC[C@@H]1C[C@](O)(c2ccccc2)[C@@H](c2ccccc2)[C@H](c2ccc(F)cc2)O1 (relative stereo)
GI50 (NCI-H322M [1]): 2.29 µM | CC50 (NCI-H322M [1]): > 100 µM | TGI (NCI-H322M [2]): 6.45 µM

N#CSC[C@@H]1C[C@](O)(c2ccccc2)[C@@H](c2ccccc2)[C@H](c2ccc(F)cc2)O1 (relative stereo)
GI50 (NCI-H322M [1]): 4.78 µM | CC50 (NCI-H322M [1]): > 100 µM | TGI (NCI-H322M [2]): 26.9 µM

N#CSC[C@@H]1C[C@@](O)(c2ccccc2)C[C@H](c2ccc(Cl)cc2)O1 (relative stereo)
CC50 (NCI-H322M [1]): 52.4 µM

N#CSC[C@@H]1C[C@@](O)(c2ccccc2)C[C@H](c2ccc(F)cc2)O1 (relative stereo)
GI50 (NCI-H322M [1]): 3.31 µM | CC50 (NCI-H322M [1]): 44.6 µM | TGI (NCI-H322M [2]): 13.8 µM

CCSC[C@@H]1C[C@@](O)(c2ccccc2)C[C@H](c2ccc(F)cc2)O1 (relative stereo)
GI50 (NCI-H322M [1]): 2.18 µM | CC50 (NCI-H322M [1]): 29.5 µM | TGI (NCI-H322M [2]): 7.76 µM

CCSC[C@@H]1C[C@](O)(c2ccccc2)[C@@H](c2ccccc2)[C@H](c2ccc(Cl)cc2)O1 (relative stereo)
GI50 (NCI-H322M [1]): 1.94 µM | CC50 (NCI-H322M [1]): > 100 µM | TGI (NCI-H322M [2]): 5.1 µM
